A selection: hits, their analogues and other compounds. The true share with any hit is near 1.3%.
UUG fidelity: modulators of start codon recognition fidelity in yeast; S. cerevisiae UUG-firefly luciferase reporter, luminescence/redox ratio; AID 602363; 350,000 tested, 0.13% active; activity score, % at 18.7 µM;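 active = replicate mean at a twofold rise or more, about +100% in these data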;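 also: firefly luciferase made from a UUG start codon reports start codon fidelity; reporter light over untreated wells divided by growth signal over untreated wells; some hits fall short of that in this replicate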
AF4-AF9 inh: inhibitors of AF4 peptide binding to AF9, primary screen, biochemical, AlphaScreen, biotin-AF4 peptide, FLAG-AF9, single point | 350,000 tested, 0.47% active | inhibition, % at 10 µM;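 active = every replicate reaching a set inhibition limit, whatever the replicate mean, cut at about 25% in these data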
ARNT TACC3 PPI: disruptors of ARNT/TACC3 protein interaction, primary screen, biochemical, AlphaScreen, single concentration; Transforming acidic coiled-coil-containing protein 3 (Homo sapiens), Q9Y6A5; AlphaScreen His-ARNT PAS-B/GST-TACC3 binding, luminescence; TACC3 fragment carries E629A point mutation; inhibition, % at 9.99 µM; 390,000 tested, 0.66% active;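 active = mean inhibition of replicates at least 50% and at least half of replicates each reaching 50%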
S100A4 inh HTS: inhibitors of S100A4-myosin IIA peptide binding, primary screen, biochemical, fluorescence polarization, TAMRA-MyoIIA peptide | Protein S100-A4 (Homo sapiens), P26447 | inhibition, % at 10.7 µM | 360,000 tested, 0.14% active;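 active = mean inhibition of at least 70% across replicates, with every replicate also reaching that level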
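Material: human S100A4 monomer with TAMRA-labelled myosin IIA peptide; buffer or medium: HEPES pH 7.2 with CaCl2, KCl, NaCl, DTT, Triton; compound dosing: one concentration per compound; schedule: 5 min incubation before reading; benchmarks: neutral control DMSO, positive control TFP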
ERAP1 inh: human ERAP1 aminopeptidase inhibitors, primary screen, biochemical, single point, plate reader; inhibition, % at 10.7 µM; Endoplasmic reticulum aminopeptidase 1 (Homo sapiens), Q9NZ08; 340,000 tested, 0.15% active; recombinant ERAP1, Leu-AMC fluorescence, 60 min;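 active = mean replicate inhibition of at least 30%, or all replicates individually reaching that 30% level; inactive = mean below 30% and not every replicate reaching it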
E-selectin induc: E-selectin induction in HUVECs, primary screen, imaging, HUVEC, immunofluorescence imaging, single point; P16581; normalized: neutral wells 0, TNF-alpha wells 100; activation, % at 7.58 µM; 260,000 tested, 0.37% active; AID 686992, 2013;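 active = mean E-selectin-positive cell signal at least 10% of the positive control, reached in at least 60% of replicates, without over 20% cell loss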
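Assay system: HUVEC primary endothelial cells. Input: 3,000 HUVEC seeded per well. Doses: one compound dose added by pin transfer. Read-out basis: % PE-positive cells. Benchmarks: TNF-alpha high, DMSO low. Detection: immunofluorescence imaging. Buffer or medium: EGM-2, gelatin.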
A number is an active result; n = inactive; x = no result given.

SMILES	UUG fidelity	AF4-AF9 inh	ARNT TACC3 PPI	S100A4 inh HTS	ERAP1 inh	E-selectin induc
CCc1cccc(CC)c1NC(=O)CN(CC(=O)O)CC(=O)O	n	n	n	n	n	n
CC(=O)N(C[C@H]1N[C@H](CO)[C@@H]1c1ccc(-c2cccc(F)c2)cc1)C1CCCC1	x	n	x	n	n	n
C[C@@H]1CN([C@H](C)CO)C(=O)c2cc(N(C)C)ccc2O[C@H]1CN(C)Cc1ccc(Cl)c(Cl)c1	n	28	n	n	n	n
C[C@@H]1CN([C@H](C)CO)C(=O)Cc2cc(N(C)C)ccc2O[C@H]1CN(C)Cc1ccc(Cl)c(Cl)c1	x	x	x	x	x	n
C[C@@H]1CN([C@@H](C)CO)C(=O)c2cc(N(C)C)ccc2O[C@@H]1CN(C)Cc1ccc(Cl)c(Cl)c1	n	33	n	n	n	n
C[C@@H]1CN([C@H](C)CO)C(=O)c2cc(N(C)C)ccc2O[C@@H]1CN(C)Cc1ccc(Cl)c(Cl)c1	n	28	n	n	n	n
C[C@H](CO)N1C[C@H](C)[C@H](CN(C)Cc2ccc(Cl)c(Cl)c2)Oc2ccc(N(C)C)cc2CC1=O	n	n	n	n	n	n
C[C@@H]1CN([C@@H](C)CO)C(=O)c2cc(NC(=O)Cc3ccccc3)ccc2O[C@@H]1CN(C)Cc1ccc(Cl)c(Cl)c1	n	n	n	n	n	35
C[C@H](CO)N1C[C@H](C)[C@@H](CN(C)Cc2ccc(Cl)c(Cl)c2)Oc2ccc(NC(=O)Cc3ccccc3)cc2C1=O	n	n	n	n	n	n
CCC(=O)Nc1ccc2c(c1)C(=O)N(C)[C@@H]1CC[C@H](CC(=O)NCCc3ccccc3)O[C@@H]1CO2	n	n	n	n	n	n
COc1ccc(S(=O)(=O)Nc2ccc3c(c2)C(=O)N([C@@H](C)CO)C[C@@H](C)[C@@H](CN(C)C(=O)Cc2ccccc2)OCCCC[C@@H](C)O3)cc1	n	n	n	n	n	n
C[C@@H]1CN([C@@H](C)CO)C(=O)c2cc(C3=CCCCC3)cnc2O[C@@H]1CN(C)C(=O)c1ccccc1	n	n	n	n	n	n
CN(C)C(=O)C[C@@H]1C[C@@H]2c3cc(NC(=O)c4ccc5c(c4)OCO5)ccc3O[C@@H]2[C@@H](CO)O1	n	n	n	n	n	n
COc1ccc(S(=O)(=O)Nc2ccc3c(c2)C(=O)N([C@@H](C)CO)C[C@H](C)[C@@H](CN(C)Cc2ccc(Cl)c(Cl)c2)O3)cc1	n	n	n	n	n	80
O=[N+]([O-])c1ccc(Nc2ccccc2)c2nonc12	n	n	n	n	n	n
O=[N+]([O-])c1ccc(Sc2cccc[n+]2[O-])c2nonc12	x	x	62	n	n	n
Cc1ccc2[nH]c(=O)c(C3C(C#N)=C(N)Oc4c3ccc3cccnc43)cc2c1 (stereo not drawn)	n	x	50	x	x	x
CC(C)(C)c1ccc(C(=O)Nc2ccc3c(c2)C(=O)NC3=O)cc1	n	n	n	n	n	137
CC(=O)c1ccc(C(=O)Nc2ccc3c(c2)C(=O)NC3=O)cc1	n	n	n	n	n	n
CCOc1cccc(/C=C/C(=O)O)c1	n	47	n	n	n	n
Cc1[nH][nH]c(=O)c1C(c1ccc(-c2cccc(Cl)c2)o1)c1c(C)[nH][nH]c1=O	n	x	50	x	x	x
CCOc1cc(/C=C/C(=O)Nc2ccc(C(=O)NCCN(CC)CC)cc2)ccc1OCC(C)C	x	31	n	n	n	n
C[C@H](CO)N1C[C@H](C)[C@@H](CN(C)Cc2cccc(F)c2)Oc2ncc(C3=CCCC3)cc2C1=O	n	n	n	n	n	n
COCC(=O)N(C)C[C@H]1Oc2ncc(C#CC3(O)CCCC3)cc2C(=O)N([C@@H](C)CO)C[C@H]1C	n	n	n	n	n	n
c1ccc(-c2ccccc2OCCOCCN2CCNCC2)cc1	x	n	x	n	n	39
SMILES	UUG fidelity	AF4-AF9 inh	ARNT TACC3 PPI	S100A4 inh HTS	ERAP1 inh	E-selectin induc
c1ccc(-c2ccccc2OCCOCCN2CCOCC2)cc1	n	n	n	n	n	n
COc1ccc(NC(=O)c2ccccc2)c([N+](=O)[O-])c1	x	n	n	n	n	n
COc1ccc(NC(=O)c2ccc(-n3cnnn3)cc2)c([N+](=O)[O-])c1	n	26	n	n	n	x
CCOCCCNC(=S)N(CCCN(C)C)Cc1cc2cc3c(cc2[nH]c1=O)OCCO3	n	n	27	n	n	n
COCCNC(=S)N(CCO)Cc1cc2cc3c(cc2[nH]c1=O)OCCO3	n	n	49	n	n	x
COCCCNC(=S)N(CCCN(C)C)Cc1cc2cc3c(cc2[nH]c1=O)OCCO3	n	n	n	n	n	x
CC(C)NC(=O)Nc1ccc2c(c1)CC(=O)N([C@H](C)CO)C[C@H](C)[C@H](CN(C)C(=O)Nc1ccc(F)cc1)O2	n	n	n	x	x	n
C[C@H](CO)N1C[C@H](C)[C@@H](CN(C)C(=O)C2CCC2)Oc2cc(-c3cccnc3)ccc2S1(=O)=O	n	n	n	n	n	n
Oc1cccc2ccc(Nc3ccccn3)nc12	n	x	64	x	x	x
COC(=O)C[C@@H]1CC[C@@H]2[C@H](COC[C@H](O)CN2CCC(F)(F)F)O1	n	n	n	n	n	n
CC(=O)C1=C(c2ccccc2)N(C(C)=O)n2c(C)nnc2S1	n	n	35	n	n	x
Cc1c(C)c2ccc(O)c(CN3CCN(C)CC3)c2oc1=O	n	n	n	n	31	x
CN1CCN(Cc2c(O)ccc3cc(Br)ccc23)CC1	x	n	x	n	n	x
CN1CCN(Cc2c(O)ccc3cc(-c4ccccn4)c(=O)oc23)CC1	n	n	n	n	112	x
O=c1oc2c(CN3CCCCC3)c(O)ccc2c2c1CCCC2	n	x	n	x	x	x
Cc1cc(=O)oc2c(CN3CCCCC3)c(O)ccc12	x	n	n	n	46	n
Cc1cc(=O)oc2c(CN3CCOCC3)c(O)ccc12	n	n	n	n	n	n
CCc1cc(=O)oc2c(CN3CCN(C)CC3)c(O)ccc12	n	n	n	n	36	x
C[C@@H]1CN([C@H](C)CO)C(=O)c2cc(NS(=O)(=O)c3cn(C)cn3)ccc2O[C@H]1CN(C)C(=O)NC1CCCCC1	n	n	n	n	n	n
Cc1ccc(S(=O)(=O)Nc2ccc3c(c2)C(=O)N([C@H](C)CO)C[C@@H](C)[C@H](CN(C)C(=O)C2CCCCC2)OCCCC[C@H](C)O3)cc1	n	n	n	n	n	n
COCC(=O)Nc1ccc2c(c1)[C@@H]1C[C@H](CC(=O)NCCc3ccccc3)O[C@H](CO)[C@@H]1O2	n	n	n	n	n	n
